Measured values: patent publication US20210379066A1, “COMBINATIONS OF POSITIVE ALLOSTERIC MODULATORS AND NICOTINIC ACETYLCHOLINE RECEPTOR AGONISTS FOR TREATING OCULAR CONDITIONS” (Oyster Point Pharma, Inc., priority 2018, published 2021)

Sequences of proteins named here, by UniProt entry; tags and fusion partners are left off. Residues count along the entry.
UniProt P36544, 23-502: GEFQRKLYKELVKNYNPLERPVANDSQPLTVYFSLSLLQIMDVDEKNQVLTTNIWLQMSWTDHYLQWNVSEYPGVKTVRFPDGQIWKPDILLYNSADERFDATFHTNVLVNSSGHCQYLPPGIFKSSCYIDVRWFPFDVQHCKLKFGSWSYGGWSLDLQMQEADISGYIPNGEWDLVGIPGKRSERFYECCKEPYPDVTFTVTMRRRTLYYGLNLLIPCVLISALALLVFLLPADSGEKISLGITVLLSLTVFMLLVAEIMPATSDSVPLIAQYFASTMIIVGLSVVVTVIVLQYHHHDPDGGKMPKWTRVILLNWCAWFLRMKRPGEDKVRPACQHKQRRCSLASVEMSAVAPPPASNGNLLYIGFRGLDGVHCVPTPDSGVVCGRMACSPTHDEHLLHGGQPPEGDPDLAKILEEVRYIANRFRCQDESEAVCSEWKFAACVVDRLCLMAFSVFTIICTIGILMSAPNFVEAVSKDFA

Columns and labels:
human nAChR alpha7 = biological target: T1, human nAChR alpha7 (Homo sapiens, UniProt P36544); test: Agonist activity, two-electrode voltage clamp in Xenopus oocytes (Examples 2 and 5); type: cell-based
T1 construct: expressed in transfected cells; host or cells: Xenopus laevis oocytes (cDNA injection)
Experimental: All experiments were carried out at human nAChRs expressed in Xenopus oocytes using the method of cDNA expression. Xenopus oocytes were prepared and injected using standard procedures.
Briefly, ovaries were harvested from Xenopus Laevis females that have been deeply anesthetized by cooling at 4° C. and Tricaine methanesulfonate (MS-222 at a concentration of 150 mg/L) in sodium bicarbonate (300 mg/L). Once anesthetized the animal was decapitated and pithed following the rules of animal rights from the Geneva canton. A small piece of ovary was isolated for immediate preparation while the remaining part was placed at 4° C. in a sterile Barth solution containing in mM NaCl 88, KCl 1, NaHCO32.4, HEPES 10, MgSO4.7H2O 0.82, Ca(NO3)2.4H2O 0.33, CaCl2.6H2O 0.41, at pH 7.4, and supplemented with 20 μg/ml of kanamycin, 100 unit/ml penicillin. All recordings were performed at 18° C. and cells superfused with OR2 medium containing in mM: NaCl 88, KCl 2.5, HEPES 5, CaCl2.2H2O 1.8, MgCl2.6H2O 1, pH 7.4.
Currents evoked by ACh or other agonists were recorded using an automated process equipped with standard two-electrode voltage-clamp configuration (TEVC). Data were captured and analyzed using a HiQScreen proprietary data acquisition and analysis software running under Matlab (Mathworks Inc.).
See Example 1. […] The test concentration of acetylcholine chloride was 1280 micromolar. […]
A protocol to determine agonistic activity in the oocytes expressing the nAChRs was developed. […] The current evoked from exposure to the agonist at each concentration was recorded. […]
A protocol to determine agonistic activity in the oocytes expressing the nAChRs was developed. Oocytes expressing a nAChR subtype were exposed to a brief test pulse of acetylcholine (1280 micromolar) while the holding current and response was evaluated. […] The current evoked from exposure to the agonist at each concentration was recorded. […]

human alpha7 nAChRs = biological target: T2, human alpha7 nAChRs (Homo sapiens, UniProt P36544); test: Antagonistic activity / desensitization, cumulative exposure in the low concentration range (Example 2); type: cell-based; conditions: concentrations up to 300 nM
T2 construct: expressed in transfected cells; host or cells: Xenopus laevis oocytes (cDNA injection)

varenicline tartrate [reference compound]
pEC50 (human nAChR alpha7; Example 2, value for compound 1 salt only an estimation): ~4.96 and ~4.82 | effect on the subsequent ACh-evoked current (human nAChR alpha7; after exposure to the agonist): no significant inhibition | agonist character (human nAChR alpha7; versus ACh response): full agonist; also recorded: responses equivalent to ACh | inhibition of the ACh-evoked current by sustained exposure (human alpha7 nAChRs): inhibition for concentrations in the hundreds of nanomolar range; also recorded: causes a desensitization

pEC50: −log10 of the molar value. Where “and” joins values, the source holds several entries; their conditions need not be identical. Equal values may be shown once. Entries after “also recorded” stand apart in the source; their conditions may differ.
